Earlier results as cited in publication PMC4764904, “Development of Spexin-based Human Galanin Receptor Type II-Specific Agonists with Increased Stability in Serum and Anxiolytic Effect in Mice” (Scientific Reports, 2016).

System: GALR1
Set-up: method as in PMID 24517231
Settings: cited from earlier work

galanin
Action at GALR1 (in words): activates all three receptor subtypes
